# Reference: US20240189343A1, “TREATMENT OF VIRUS INFECTIONS” (priority 2021, published 2024)
# Tests used:
# [1] = system: ZIKV African lineage (Strain MP1751)
# [2] = system: ZIKV Asian lineage (PF/13)
# [3] = system: DENV2 (strain New Guinea C)
substance,measurement,setting,value
dextran sulfate,SI (=TC50/EC50),[1],>167
same,SI (=TC50/EC50),DENV4 (strain H241),>16
same,SI (=TC50/EC50),[2],>71
same,SI (=TC50/EC50),DENV1 (strain Hawaii),>34
same,SI (=TC50/EC50),DENV3 (strain H87),>333
same,SI (=TC50/EC50),[3],>83
